The results in this text go back to PubChem BioAssay AID460 (PCMD, 2006).

By UniProt entry, the sequences of proteins in these tests, tags left out. Residues count along the entry.
UniProt P07711, 114-288 limits assumed: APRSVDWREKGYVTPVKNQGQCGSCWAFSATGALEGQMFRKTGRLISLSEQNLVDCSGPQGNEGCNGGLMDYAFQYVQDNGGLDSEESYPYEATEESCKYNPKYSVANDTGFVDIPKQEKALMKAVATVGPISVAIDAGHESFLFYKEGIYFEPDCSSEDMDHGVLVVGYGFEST
UniProt P07711, 292-333 limits assumed: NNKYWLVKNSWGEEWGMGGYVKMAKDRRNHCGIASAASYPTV

In general, inhibition refers to the change of the read-out against control, counted positive when it falls.

The entries are a selection whose mix differs from that of the whole data set. The source made the active and inactive calls. No stated cut-off is given here; in the data, active means inhibition above about 45%; inactive means the rest.

The target of this experiment is Procathepsin L (Homo sapiens) (UniProt P07711). Briefly: blockers of CTSL protease activity – biochemical (AID 460).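 Further: 0% = enzyme with no compound and 100% = no enzyme blank.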 The following applies: purified cathepsin L, fluorogenic substrate, fluorescence; stronger effect = higher value;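 tested at 10 µM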.
On to `COc1ccccc1OP(C)(=O)Nc1ccc(C)c(C)c1` (stereo not drawn), for which the inhibition is inactive: 18.8%.
Consider `Cc1nc2ccc3ccccc3c2o1.O=[N+]([O-])c1cc([N+](=O)[O-])c(O)c([N+](=O)[O-])c1`, for which the inhibition was inactive: -6.27%.
The figure for `CP(=O)(Nc1ccccn1)Oc1ccccc1` (stereo not drawn) is inactive: 14.4%.
Consider `CCN(CC)CC(O)COC(=O)C(O)(c1ccccc1)C1CCCCC1` (stereo not drawn), for which the inhibition was inactive: 1.99%.
`COc1ccccc1OP(C)(=O)Nc1c(C)n(C)n(-c2ccccc2)c1=O` (stereo not drawn): the inhibition is inactive: 2.05%.
As to `CP(=O)(Oc1ccccc1)N1CCOC1=O` (stereo not drawn), the inhibition was inactive: -8.08%.
Consider `CN(C)CCOC(=O)C(O)(c1ccccc1)C1CCCCC1` (stereo not drawn), for which the inhibition is inactive: -0.99%.
As to `CCOP(C)(=S)SCC(=O)NC(C)(CC)C(=O)O` (stereo not drawn), the inhibition was inactive: 13.9%.
With `CP(=O)(Nc1ccc2c(c1)OCCO2)Oc1ccccc1` (stereo not drawn), the inhibition is inactive: -12.9%.
The figure for `Cc1ccccc1NP(C)(=O)Nc1ccccc1C` is inactive: 2.51%; for `CP(=O)(Nc1ccccc1F)Oc1ccccc1` (stereo not drawn) it is inactive: -5.78%.
The figure for `Cc1ccc(C)c(NP(C)(=O)Oc2ccccc2)c1` (stereo not drawn) is inactive: -5.13%; for `Cc1nc2ccc3ccccc3c2s1.O=[N+]([O-])c1cc([N+](=O)[O-])c(O)c([N+](=O)[O-])c1` it is inactive: 4.29%; for `CP(=S)(Nn1cnnc1)Oc1ccccc1` (stereo not drawn) it is inactive: 5.24%.
Consider `CP(=O)(NC(=O)Nc1ccccc1)Oc1ccccc1` (stereo not drawn), for which the inhibition is inactive: 4.22%.
For the compound `CCOP(C)(=S)SCC(=O)NC(C)C(=O)O` (stereo not drawn), the inhibition is inactive: 9.35%.
Consider `COc1ccccc1OP(C)(=O)Nc1ccc(C)cc1` (stereo not drawn), for which the inhibition is inactive: 7.95%.
Turning to `Cc1ccc(NP(C)(=O)Oc2ccccc2)c(C)c1` (stereo not drawn), the inhibition is inactive: -9.67%.
